Experiments:
[1] = test system: cisplatin-refractory advance/metastatic urothelial carcinoma; settings: systemic administration; vs 6-7 months with salvage chemotherapy; cited from earlier work
[2] = test system: CD8+CD44high memory T cells; test: In vivo CD8+CD44high memory T cell phenotype and adoptive transfer; parameters: species or system C57BL/6 mice; settings: Celltrace Violet-labeled splenocytes; naïve C57BL/6 recipients
Text: It has been shown recently that cytokine-mediated stimulation could promote antigen-nonspecific expansion of memory CD8^+ cells with a unique phenotype. […] Without being bound to a particular theory, ALT-801 activation of this type of memory CD8^+ T cell plays a major role in the anti-MB49luc tumor activity in mice. To evaluate this possibility, it was first examined whether ALT-801 alone could induce memory CD8^+ T cell expansion in-vitro. The phenotype of CD8^+CD44^high T cells were compared after activation with ALT-801 or anti-CD3 antibody (TCR-dependent engagement). […] To examine whether a similar phenomenon occurs in-vivo, non-tumor bearing mice were injected intravenously with ALT-801 at 1.6 mg/kg (in 100 μL) or PBS (100 μL) twice (72 hours apart) and the phenotypes of PBMCs and splenocytes were analyzed one day after the second PBS or ALT-801 treatment. […]
In this study, Celltrace™ Violet-labeled splenocytes (0.5×10^6) were adoptively transferred from naïve C57BL/6 mice into naïve isogenic C57BL/6 mice and then the mice were treated with ALT-801 or PBS intravenously one day after the adoptive cell transfer. The phenotypes of the CD8^+CD44^high T cells from the spleens of the recipient mice were then analyzed one day after the second ALT-801 or PBS treatment. […]

[3] = test system: MB49luc orthotopic muscle invasive bladder tumors; test: ALT-801 versus IL-2 in orthotopic MB49luc model; type: in vivo, C57BL/6 mice; settings: i.v. days 7, 10, 14, 17; ALT-801 1.6 mg/kg vs IL-2 and PBS P≦0.0002; IL-2 0.42 mg/kg vs PBS P=0.84
Experimental: The anti-tumor effect of ALT-801 and IL-2 intravenous treatment was evaluated in a mouse bladder orthotopic model in immunocompetent C57BL/6 mice. C57BL/6 mice (10-11 weeks old) were instilled intravesically with MB49luc cells (3×10^4 cells/bladder in 100 μL) on day 0 following polylysine pretreatment of the bladder. ALT-801 (1.6 mg/kg, n=8), IL-2 (0.42 mg/kg, n=8) or PBS (100 μL, n=8) was administered i.v. on 7, 10, 14 and 17 days post tumor cell instillation.

IL-2: recombinant human IL-2
median survival [1]: over 10 months | proliferation of adoptively transferred CD8+CD44high T cells [2]: but not | survival of mice / anti-tumor effect [3]: no anti-tumor effect
